## scFv variants of Ab-14 (light chain) against a SARS-CoV-2 spike peptide

Reference: Li et al. 2023, doi:10.1038/s41467-023-39022-2. File: FLAb, binding data.

Target: peptide PDVDLGDISGINAS, taken from heptad repeat 2 (HR2) of SARS-CoV-2 spike.

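The starting antibody came from a phage panning campaign against this peptide. This is the validation round: designs drawn from the data on random variants, tested in the same kind of assay. Several design methods are mixed in this list. AlphaSeq pools MATa yeast showing the antibodies with MATalpha yeast showing the peptide. Mating (16 h, 30 °C) was followed by selection of diploids and sequencing of their barcodes. Scores were corrected for input abundance and mapped to Kd with protein pairs of known affinity run in the same pool. Each pool was mated in six replicate cultures.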

Ab-14 is the parent antibody, in scFv form: VH, then a 15-residue (Gly4Ser)3 linker, then VL. The heavy chain is unchanged in all variants.
VH: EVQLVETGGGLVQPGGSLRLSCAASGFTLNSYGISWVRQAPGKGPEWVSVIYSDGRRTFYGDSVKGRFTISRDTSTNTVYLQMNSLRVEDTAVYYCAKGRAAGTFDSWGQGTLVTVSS
VL: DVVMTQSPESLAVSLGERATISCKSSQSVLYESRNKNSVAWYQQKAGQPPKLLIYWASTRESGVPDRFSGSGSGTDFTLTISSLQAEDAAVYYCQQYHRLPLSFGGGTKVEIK

The parent's light chain CDRs are KSSQSVLYESRNKNSVA, WASTRES, QQYHRLPLS; each variant's own CDRs replace them letter for letter. Variants here have at most six changes. Each Kd is an estimate from the mating assay, the geometric mean of the replicates in which the pair was seen; lower is stronger. A pair that was not seen in any replicate is written "nd"; this usually means weak binding, but a binder can also be missed. The authors averaged sequences with at least three values out of six and counted those with two or fewer as poor binders. Background: pairings of all light chain designs with three empty control strains gave a value in 4% of cases (median 430 nM, 5th percentile 38 nM). Values in that range, when seen in few replicates, are hard to tell from nonspecific mating. Of ten entries with the parent sequence, four were seen in most replicates (averages 2.2 nM to 240 nM), three in one and three in none, so single entries are noisy. Values of this round are not directly comparable with the first-round values of the same sequences.

For KLSQSWLYESRNSNSVA / NASQRES / QQYHRLPLS, the assay gave 3.0 nM (6 of 6 replicates). Variant KLSTSVLYESRNKNSVA / DASTRES / QQYHRLPLS showed 620 pM (6 of 6 replicates). Variant KSSQSVLYESRNKNSVA / WASTRES / KQYHRLPLS showed 170 nM (1 of 6 replicates). For KQPQSVLYESVNKNSVA / DASTRES / QQYHRLPLS, the assay gave 2.8 nM (6 of 6 replicates). Variant KQSQSVLYEWRDKNSVA / DASTRES / QQYHRLPLS showed 1.6 nM (6 of 6 replicates). For KLSQSDLYESRNKMSVA / NASTRES / QQYHRLPLS, the assay gave 390 pM (6 of 6 replicates).

With KSSSSVLYESENKNSVA / EASQRES / QQYHRLPLS the result was 6.8 nM (6 of 6 replicates). Variant KSDQSHLYGSRNKNSVA / EASERES / QQYHRLPLS gave 900 pM (6 of 6 replicates). With KLSWSWLYESRNKNSVA / NASQRES / QQYHRLPLS the result was 590 pM (6 of 6 replicates). For KSSQSVLYESRNKNSVA / WASTRET / CQYHRLPLS, the assay gave nd (0 of 6 replicates). Variant KSSQSVLYESRFKNSVA / NASTRES / QTYHRLPLS showed 7.6 nM (6 of 6 replicates). With KSSQSVFYESRNKNSVA / NASTRES / PQYHRLPLL the result was 14 nM (6 of 6 replicates).

Variant QSSQSVLYESRNKNSVA / SASTRES / QQYHRLPLS gave 21 nM (6 of 6 replicates). Variant KVSQSELYESRNKNSVA / DASQRES / QQYHRLPLS showed 2.5 nM (6 of 6 replicates). With KVSQSNLYESRNKNNVA / EASTRES / QQYHRLPLS the result was 550 pM (6 of 6 replicates). With KLSQSELYESRWKNSVA / NASTRES / QQYHRLPLS the result was 4.5 nM (6 of 6 replicates). With KSSQSVLYESPNKDSVA / WASERES / QQYHRLPLS the result was 210 nM (4 of 6 replicates). Variant KSSFSVKFESRNKNSVA / DASTRES / QQYHRLPLS showed 3.8 nM (6 of 6 replicates).

Variant KISQSVLYEDRTKNSVA / WATTRES / GQYHRLPLS gave 17 nM (5 of 6 replicates). Variant KLSQSVLYESRNKNSVA / NASTRCV / QQYHRLPLS gave 500 pM (6 of 6 replicates). For KLEQGVLYESRNKNSVA / GASTRES / QQYHRLPLS, the assay gave 1.3 nM (6 of 6 replicates). For KSSQSVLYESNNKNSVA / WASTRES / QQYHRLPVS, the assay gave 120 nM (6 of 6 replicates). For KLSQSQLYESRMKNNVA / NASTRES / QQYHRLPLS, the assay gave 1.7 nM (6 of 6 replicates). For KLSQSQLYESRNKNAVA / NASQRES / QQYHRLPLS, the assay gave 16 nM (6 of 6 replicates).

For KISQEVLYESRNKNSVA / DASTRES / QQYHRLPLK, the assay gave 430 pM (6 of 6 replicates). Variant KSSQSVLYESRNKNSVA / WRSERES / QQYHWLPLS gave nd (0 of 6 replicates). With KFSQSVLLESRNKNSVA / NASTRES / QWYHRLPLS the result was 58 nM (6 of 6 replicates). With KVSQSVLYESRNKNSVA / SASTRES / TQYHVLPLS the result was 330 pM (6 of 6 replicates). Variant KVSQSFLYESRPKNAVA / GASTRES / QQYHRLPLS showed 1.1 nM (6 of 6 replicates). For KLDQSTLYESRNKNSVA / LASTRES / QQYHRLPLS, the assay gave 4.0 nM (6 of 6 replicates).

With KMSQSVLYESRDKNSVA / WASTRES / QQYGRLPLS the result was 2.1 nM (6 of 6 replicates). With KSSQSVLYTSRNKNSVA / NADTRES / QQYHRLPLS the result was 4.1 nM (6 of 6 replicates). Variant KCSQSVLYEARNKNSVA / WASTREQ / QQYHRLPLS gave nd (0 of 6 replicates). Variant KISQSVLGEQRNKNSVA / DISTRES / QQYHRLPLS showed 760 pM (6 of 6 replicates). With KFSQSWLYESRNKNNVA / NASTRES / QQYHRLPLS the result was 410 pM (6 of 6 replicates). With KSSQSVLQESDNTNSVA / WASTRES / QQYHRLPLS the result was 8.6 nM (6 of 6 replicates).

With KSSISELYESRNENSVA / EASTREQ / QQYHRLPLS the result was 1.3 nM (6 of 6 replicates). Variant KFSQSVLYESRNKNNVA / WAQTRES / QQYHRLPLS showed 2.4 nM (6 of 6 replicates).

A selection of 5 entries from above:

CDR-L1,CDR-L2,CDR-L3,apparent Kd,detected
QSSQSVLYESRNKNSVA,SASTRES,QQYHRLPLS,21 nM,6 of 6
KLEQGVLYESRNKNSVA,GASTRES,QQYHRLPLS,1.3 nM,6 of 6
KSSQSVLYESRFKNSVA,NASTRES,QTYHRLPLS,7.6 nM,6 of 6
KLDQSTLYESRNKNSVA,LASTRES,QQYHRLPLS,4.0 nM,6 of 6
KSSQSVLYESRNKNSVA,WRSERES,QQYHWLPLS,nd,0 of 6